Experimental findings from patent publication US20180305370A1 (ORPHOMED, INC., priority 2015, published 2018) are described below.

Protein sequences, listed by entry. Tags and fused reporters are not part of them. Lines headed by an entry give the natural chain unless they say otherwise; changes in a name come on top.
UniProt P35372: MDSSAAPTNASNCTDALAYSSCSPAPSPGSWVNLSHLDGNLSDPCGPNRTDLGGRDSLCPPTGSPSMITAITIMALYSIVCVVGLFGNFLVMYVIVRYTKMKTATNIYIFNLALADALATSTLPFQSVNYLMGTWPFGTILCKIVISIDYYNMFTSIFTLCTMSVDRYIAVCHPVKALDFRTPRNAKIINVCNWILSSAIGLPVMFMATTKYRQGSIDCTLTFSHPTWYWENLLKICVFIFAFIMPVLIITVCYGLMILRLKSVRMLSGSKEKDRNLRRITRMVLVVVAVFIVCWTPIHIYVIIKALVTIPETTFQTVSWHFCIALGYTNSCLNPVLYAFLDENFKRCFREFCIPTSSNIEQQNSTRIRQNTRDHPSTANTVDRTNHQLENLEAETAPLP

The target in assay [1] is T1, human μ receptors (Homo sapiens, UniProt P35372). The assay can be described thus: μ opioid receptor agonist functional assay, [35S]GTPγS binding in CHO-hMOR membranes. As to conditions: FIG. 4.
Assay [2] has as its target T1, human μ receptors. The assay is described as follows: μ opioid receptor antagonist functional assay, [35S]GTPγS binding in CHO-hMOR membranes. As to conditions: FIG. 5. For orientation: GTPγS resists hydrolysis and so accumulates on activated G proteins.
The next assay concerns the target human μ opioid receptor (Homo sapiens, UniProt P35372). The assay is described as follows: Human μ opioid receptor binding assay (3H-naloxone, CHO membranes). Particulars: FIG. 2.

Take “2-[(2S)-2-[(5R,6R,7R,14S)-9α-cyclopropylmethyl-4,5-epoxy-6,14-ethano-3-hydroxy-6-methoxymorphinan-7-yl]-3,3-dimethylbutan-2-ol]-ethanol”: on human μ receptors [1], the μ agonist function entry is recorded as “potent μ agonist”. The μ antagonist function result at human μ receptors [2] is recorded as “does not function as a μ-antagonist”. In addition, the “affinity for the opioid μ receptor” value on human μ opioid receptor was “significant affinity”.
